# Data as given in patent publication US11298363B2, “Triazolobenzazepines as vasopressin V1a receptor antagonists” (RICHTER GEDEON NYRT., priority 2017, dated 2022).
# Chains of the proteins cited; added tags and fusions are not shown.
# UniProt P37288, whole entry: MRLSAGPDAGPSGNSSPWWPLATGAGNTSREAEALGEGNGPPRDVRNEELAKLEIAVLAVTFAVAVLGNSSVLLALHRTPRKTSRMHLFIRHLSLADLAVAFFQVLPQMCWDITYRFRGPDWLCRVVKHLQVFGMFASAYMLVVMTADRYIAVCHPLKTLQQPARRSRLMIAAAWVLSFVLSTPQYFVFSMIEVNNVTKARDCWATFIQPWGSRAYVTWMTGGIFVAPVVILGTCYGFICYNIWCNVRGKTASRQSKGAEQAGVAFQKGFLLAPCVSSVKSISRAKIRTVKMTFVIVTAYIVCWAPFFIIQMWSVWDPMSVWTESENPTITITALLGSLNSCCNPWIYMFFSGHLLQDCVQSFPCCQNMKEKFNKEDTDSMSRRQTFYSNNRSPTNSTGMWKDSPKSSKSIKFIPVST
# How the values were obtained:
# [1] = target: T1, human vasopressin V1a receptor (Homo sapiens, UniProt P37288); assay: Functional assay on human vasopressin V1a receptor expressing cell line (intracellular Ca2+ fluorescence); assay type: cell-based; conditions: 1321N1 cells, (Arg8)-vasopressin at EC80; read-out: IC50 (nM) on hV1a cell line
# Protocol: Functional Assay to Test Compounds on Human Vasopressin V1a Receptor Expressing Cell Line
# The immortalized 1321N1 cell line (Perkin Elmer, ES-361-M400-UA) constitutively and stably expressing human vasopressin V1a receptor were used to measure the prepared compounds. The ordinary secondary messenger pathway of the measured GPCR receptor was used, the endogenous Gq-associated system.
# Using 30,000 cells/plate, compounds were measured on 96-well plates. The buffer composition of the measurements was the following (expressed in mM): 140 NaCl, 5 KCl, 2 CaCl2), 2 MgCl2, 10 glucose, 10 HEPES (4-(2-hydroxyethyl)-1-piperazine-ethanesulfonic acid), 2 probenecid, pH=7.4. […] The materials to be measured were administered in 15 to 20 minutes pretreatment, at least two parallels of each compound in each concentration was measured.
# Fluorescence signal was used to determine the intracellular Ca^2+ level, the reader was FlexStation II96. Cytoplasmic Ca^2+ concentrations were measured by fluorometry using the FlexStation II96 plate reader (excitation: 485 nm, emission: 525 nm). The fluorescence signal was logged in every 1.4 seconds for 1 minute. The reference compounds used were the following: (Arg^8)-vasopressin as agonist at concentration of EC80, determined for each plate, and relcovaptan as antagonist at 1 μM. […]
# The total AVP concentration-response curve was recorded on each plate. […]
# [2] = target: T1, human vasopressin V1a receptor; assay: Human vasopressin V1a receptor binding assay; conditions: 1321N1 cell membranes, [3H]vasopressin; read-out: Ki (nM) on hV1a cell line
# Text: Human Vasopressin V1a Receptor Binding Assay
# The immortalized 1321N1 cell line (Perkin Elmer, ES-361-M400-UA) constitutively and stably expressing human vasopressin V1a receptor and vasopressin (8-L-Arginine), [Phenylalanyl-3,4,5-^3H(N)] labelled compound (Perkin Elmer Life and Analytical Sciences) as radioligand were used to determine the affinity of the prepared compounds.
# Membrane-preparation: Membrane preparation of immortalized 1321N1 cells expressing the propagated human Vasopressin V1a receptor was made according to Jarvis's method (Jarvis et al., J Pharmacol Exp Ther 2004, 310:407-16). Cells were suspended in preparative buffer (50 mM Tris, 1 mM EDTA, 0.1 mM PMSF) and homogenized with glass homogenizing potter. […]
# The protein content of the prepared membrane was determined according to Lowry's method using standard dilution line of bovine serum albumin (BSA) (Lowry et al., J Biol Chem 1951, 193:265-75). […]
# Non-specific binding values were determined in the presence of unlabeled 1.2×10^−6 M (Arg^8)-vasopressin. […] Finally, radioactivity was measured using MicroBeta^2 Microplate Counter (Perkin Elmer). […]
smiles,measurement,setting,value
"Clc1ccc2c(c1)CC1(Cc3nnc([C@H]4CC[C@H](Oc5ccccn5)CC4)n3-2)OCCO1 [Example 53, 8′-chloro-1′-[trans-4-(pyridin-2-yloxy)cyclohexyl]-4′H,6′H-spiro[1,3-dioxolane-2,5′-[1,2,4]triazolo[4,3-a][1]benzazepine]]",IC50,[1],0.9 nM
same,Ki,[2],0.3 nM
